Measured values reported in ChEMBL document CHEMBL1146899, “Redefining the structure-activity relationships of 2,6-methano-3-benzazocines. 4. Opioid receptor binding properties of 8-[N-(4'-phenyl)-phenethyl)carboxamido] analogues of cyclazocine and ethylketocycalzocine” (J Med Chem, 2006).

Protein sequences, listed by entry. Tags and fused reporters are not part of them. Lines headed by an entry give the natural chain unless they say otherwise; changes in a name come on top.
UniProt P41145: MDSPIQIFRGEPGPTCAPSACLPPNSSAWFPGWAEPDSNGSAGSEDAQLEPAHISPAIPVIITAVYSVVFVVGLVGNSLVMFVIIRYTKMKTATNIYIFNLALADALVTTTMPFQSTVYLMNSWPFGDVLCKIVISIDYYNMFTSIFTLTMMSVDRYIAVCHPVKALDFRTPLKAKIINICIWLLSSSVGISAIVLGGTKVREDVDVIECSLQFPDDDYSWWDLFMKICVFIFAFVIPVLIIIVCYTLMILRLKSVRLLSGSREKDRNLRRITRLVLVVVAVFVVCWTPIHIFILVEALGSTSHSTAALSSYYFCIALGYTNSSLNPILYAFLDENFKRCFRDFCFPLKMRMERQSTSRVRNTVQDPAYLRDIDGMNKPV

Target: Kappa-type opioid receptor (Homo sapiens, UniProt P41145)
Assay: biochemical
Type: cell-based, CHO

C[C@@H]1[C@@H]2Cc3ccc(C(=O)NCCc4ccc(-c5ccccc5)cc4)cc3[C@]1(C)CCN2CC1CC1 showed a Ki of 8.5 nM.

C[C@H]1C2Cc3ccc(C(N)=O)cc3[C@@]1(C)CCN2CC1CC1 gave a Ki of 0.06 nM.
